The values below are quoted from earlier work in publication PMC12795676, “Integrin α5β1 mediates the inhibitory effects of vasoinhibin on angiogenesis and vascular permeability [drawing 1]” (The Journal of Biological Chemistry, 2025).

The subject of this data set is endothelial cells. As to conditions: cited from earlier work.

As to volociximab, the “Disruption of endothelial adhesion” value was “disrupt endothelial adhesion” and the “Induction of apoptosis (anoikis)” value is “induce apoptosis through anoikis”.
